Measured values published in patent US20250236611A1, “PYRAZOLE COMPOUNDS AND USES THEREOF” (ALCON INC., priority 2021, published 2025).

The chains behind the UniProt entries cited, without tags or fusion partners.
UniProt O60674, whole entry: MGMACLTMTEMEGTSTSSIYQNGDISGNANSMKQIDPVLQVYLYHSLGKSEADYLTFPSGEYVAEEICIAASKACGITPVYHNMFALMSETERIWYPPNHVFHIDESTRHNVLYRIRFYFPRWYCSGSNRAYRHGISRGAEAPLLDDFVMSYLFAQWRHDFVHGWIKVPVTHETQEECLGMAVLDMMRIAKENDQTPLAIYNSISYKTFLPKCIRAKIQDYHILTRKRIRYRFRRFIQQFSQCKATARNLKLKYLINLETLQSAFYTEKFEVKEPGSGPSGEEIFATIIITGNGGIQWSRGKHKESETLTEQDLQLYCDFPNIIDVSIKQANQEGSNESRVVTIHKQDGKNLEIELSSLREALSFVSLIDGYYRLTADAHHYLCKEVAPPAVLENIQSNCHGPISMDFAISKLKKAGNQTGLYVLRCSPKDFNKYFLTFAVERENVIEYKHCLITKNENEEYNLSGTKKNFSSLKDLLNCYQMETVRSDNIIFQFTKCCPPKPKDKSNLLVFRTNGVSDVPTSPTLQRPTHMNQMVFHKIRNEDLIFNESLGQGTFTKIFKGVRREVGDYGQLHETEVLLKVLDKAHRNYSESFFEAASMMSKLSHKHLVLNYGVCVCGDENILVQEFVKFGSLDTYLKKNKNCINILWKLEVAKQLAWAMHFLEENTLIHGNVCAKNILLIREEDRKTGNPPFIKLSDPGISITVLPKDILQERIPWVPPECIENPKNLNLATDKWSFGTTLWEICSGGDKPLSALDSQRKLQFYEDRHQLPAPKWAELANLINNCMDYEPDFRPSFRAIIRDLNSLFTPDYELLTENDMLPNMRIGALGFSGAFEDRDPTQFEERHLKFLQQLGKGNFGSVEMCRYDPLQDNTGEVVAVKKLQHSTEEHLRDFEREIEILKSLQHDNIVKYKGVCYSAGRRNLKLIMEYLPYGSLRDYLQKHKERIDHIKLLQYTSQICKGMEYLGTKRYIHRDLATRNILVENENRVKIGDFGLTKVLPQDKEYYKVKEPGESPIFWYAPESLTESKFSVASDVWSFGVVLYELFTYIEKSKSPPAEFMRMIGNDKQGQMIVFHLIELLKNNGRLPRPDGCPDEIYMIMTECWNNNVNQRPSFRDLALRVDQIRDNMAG
UniProt P23458, whole entry: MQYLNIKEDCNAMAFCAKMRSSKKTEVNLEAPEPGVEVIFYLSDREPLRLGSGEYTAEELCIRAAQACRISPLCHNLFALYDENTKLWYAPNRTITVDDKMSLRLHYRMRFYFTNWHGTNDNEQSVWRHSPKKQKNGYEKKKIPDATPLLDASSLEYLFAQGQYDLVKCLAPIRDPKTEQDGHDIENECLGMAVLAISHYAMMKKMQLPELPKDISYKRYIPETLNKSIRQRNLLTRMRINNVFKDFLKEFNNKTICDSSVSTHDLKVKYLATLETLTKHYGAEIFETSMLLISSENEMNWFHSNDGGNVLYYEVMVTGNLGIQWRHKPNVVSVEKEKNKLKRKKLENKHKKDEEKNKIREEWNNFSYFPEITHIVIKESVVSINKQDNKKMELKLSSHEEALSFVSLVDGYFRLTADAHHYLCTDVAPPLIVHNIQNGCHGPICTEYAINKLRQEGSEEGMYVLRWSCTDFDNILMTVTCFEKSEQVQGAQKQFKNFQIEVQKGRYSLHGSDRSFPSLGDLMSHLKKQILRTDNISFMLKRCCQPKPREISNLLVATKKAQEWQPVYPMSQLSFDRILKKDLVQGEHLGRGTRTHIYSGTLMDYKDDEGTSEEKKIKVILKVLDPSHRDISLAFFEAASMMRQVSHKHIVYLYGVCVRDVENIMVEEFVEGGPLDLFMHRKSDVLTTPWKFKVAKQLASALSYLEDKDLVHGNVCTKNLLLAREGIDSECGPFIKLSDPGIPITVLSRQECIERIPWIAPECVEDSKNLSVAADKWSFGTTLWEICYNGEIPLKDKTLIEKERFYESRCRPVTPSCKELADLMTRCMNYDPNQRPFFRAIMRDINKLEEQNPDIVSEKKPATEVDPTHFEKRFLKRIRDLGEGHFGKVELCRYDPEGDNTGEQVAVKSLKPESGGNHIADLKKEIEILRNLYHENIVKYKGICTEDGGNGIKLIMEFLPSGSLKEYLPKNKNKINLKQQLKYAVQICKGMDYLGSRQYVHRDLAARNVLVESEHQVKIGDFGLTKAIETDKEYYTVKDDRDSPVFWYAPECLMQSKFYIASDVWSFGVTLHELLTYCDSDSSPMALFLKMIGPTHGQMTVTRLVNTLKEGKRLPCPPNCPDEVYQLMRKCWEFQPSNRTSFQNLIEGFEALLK
UniProt P52333, whole entry: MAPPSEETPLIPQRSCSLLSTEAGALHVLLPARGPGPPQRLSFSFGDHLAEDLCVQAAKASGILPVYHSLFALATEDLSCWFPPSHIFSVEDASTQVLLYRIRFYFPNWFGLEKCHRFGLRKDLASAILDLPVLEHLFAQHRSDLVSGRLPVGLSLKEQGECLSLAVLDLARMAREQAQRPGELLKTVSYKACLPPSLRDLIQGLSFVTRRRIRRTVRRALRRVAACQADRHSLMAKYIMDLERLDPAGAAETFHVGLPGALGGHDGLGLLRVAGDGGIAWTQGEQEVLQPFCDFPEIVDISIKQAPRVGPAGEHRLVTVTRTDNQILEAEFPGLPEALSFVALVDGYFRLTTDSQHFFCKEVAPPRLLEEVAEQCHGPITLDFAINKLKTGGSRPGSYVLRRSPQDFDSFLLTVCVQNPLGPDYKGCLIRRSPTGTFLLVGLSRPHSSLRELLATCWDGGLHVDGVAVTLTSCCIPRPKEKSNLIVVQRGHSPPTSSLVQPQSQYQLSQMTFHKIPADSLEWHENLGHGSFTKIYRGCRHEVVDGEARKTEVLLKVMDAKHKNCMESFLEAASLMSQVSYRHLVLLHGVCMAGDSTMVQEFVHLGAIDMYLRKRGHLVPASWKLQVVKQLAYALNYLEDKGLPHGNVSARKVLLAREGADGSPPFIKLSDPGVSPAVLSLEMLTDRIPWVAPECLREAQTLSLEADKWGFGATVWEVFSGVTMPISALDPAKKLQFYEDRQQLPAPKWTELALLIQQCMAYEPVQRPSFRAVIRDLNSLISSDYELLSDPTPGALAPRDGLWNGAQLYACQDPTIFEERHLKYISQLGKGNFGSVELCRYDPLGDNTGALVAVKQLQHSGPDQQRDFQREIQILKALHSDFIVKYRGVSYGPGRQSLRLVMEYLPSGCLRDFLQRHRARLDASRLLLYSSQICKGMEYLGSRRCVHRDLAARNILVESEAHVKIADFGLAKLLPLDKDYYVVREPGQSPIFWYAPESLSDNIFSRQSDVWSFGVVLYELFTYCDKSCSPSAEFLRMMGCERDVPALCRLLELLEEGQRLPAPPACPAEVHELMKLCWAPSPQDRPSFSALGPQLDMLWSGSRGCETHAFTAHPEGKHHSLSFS
UniProt P29597, whole entry: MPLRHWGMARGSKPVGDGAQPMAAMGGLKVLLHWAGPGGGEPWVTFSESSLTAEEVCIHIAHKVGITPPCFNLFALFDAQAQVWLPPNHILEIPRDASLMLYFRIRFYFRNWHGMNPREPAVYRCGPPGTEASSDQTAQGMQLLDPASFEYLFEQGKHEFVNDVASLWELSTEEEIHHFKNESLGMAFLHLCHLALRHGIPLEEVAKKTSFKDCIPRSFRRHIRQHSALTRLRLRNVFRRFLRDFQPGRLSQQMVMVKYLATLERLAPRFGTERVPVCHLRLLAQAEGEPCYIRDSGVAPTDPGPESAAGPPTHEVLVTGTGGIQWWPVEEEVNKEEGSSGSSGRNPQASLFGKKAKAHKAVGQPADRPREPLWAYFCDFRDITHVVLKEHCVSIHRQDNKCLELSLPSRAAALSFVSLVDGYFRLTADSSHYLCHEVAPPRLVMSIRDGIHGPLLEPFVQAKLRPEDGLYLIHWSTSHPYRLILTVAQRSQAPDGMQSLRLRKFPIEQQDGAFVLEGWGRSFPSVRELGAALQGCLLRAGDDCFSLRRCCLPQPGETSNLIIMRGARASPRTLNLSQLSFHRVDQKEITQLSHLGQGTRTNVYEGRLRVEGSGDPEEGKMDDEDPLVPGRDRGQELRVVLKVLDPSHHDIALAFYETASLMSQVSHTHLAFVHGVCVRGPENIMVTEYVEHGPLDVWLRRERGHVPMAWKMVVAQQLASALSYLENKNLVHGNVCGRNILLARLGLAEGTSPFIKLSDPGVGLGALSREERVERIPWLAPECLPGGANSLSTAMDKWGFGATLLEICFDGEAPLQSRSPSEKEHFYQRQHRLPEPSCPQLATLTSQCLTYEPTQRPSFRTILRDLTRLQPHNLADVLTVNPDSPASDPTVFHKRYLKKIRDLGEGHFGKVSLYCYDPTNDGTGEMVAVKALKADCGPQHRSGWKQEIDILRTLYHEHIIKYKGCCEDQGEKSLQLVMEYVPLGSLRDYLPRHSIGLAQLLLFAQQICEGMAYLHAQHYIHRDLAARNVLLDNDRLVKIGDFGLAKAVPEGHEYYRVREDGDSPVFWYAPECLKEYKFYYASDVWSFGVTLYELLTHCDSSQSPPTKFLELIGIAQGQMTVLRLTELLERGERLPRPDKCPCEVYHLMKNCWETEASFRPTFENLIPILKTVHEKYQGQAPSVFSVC

Columns and labels:
JAK2 = JAK2 (Homo sapiens, UniProt O60674); experiment: JAK assay (KINASE-GLO luminescent kinase assay), JAK2; conditions: read-out: JAK IC50 (nM) JAK2; 10 nM JAK enzyme, 800 nM Abl peptide, room temperature 75 min
JAK1 = JAK1 (Homo sapiens, UniProt P23458); experiment: JAK assay (KINASE-GLO luminescent kinase assay), JAK1; conditions: read-out: JAK IC50 (nM) JAK1; 10 nM JAK enzyme, 800 nM Abl peptide, room temperature 75 min
JAK3 = JAK3 (Homo sapiens, UniProt P52333); experiment: JAK assay (KINASE-GLO luminescent kinase assay), JAK3; conditions: read-out: JAK IC50 (nM) JAK3; 10 nM JAK enzyme, 800 nM Abl peptide, room temperature 75 min
TYK2 = TYK2 (Homo sapiens, UniProt P29597); experiment: JAK assay (KINASE-GLO luminescent kinase assay), TYK2; type: biochemical; conditions: read-out: JAK IC50 (nM) TYK2; 10 nM JAK enzyme, 800 nM Abl peptide, room temperature 75 min

Row | Compound | IC50 (JAK2) | IC50 (JAK1) | IC50 (JAK3) | IC50 (TYK2)
1 | CN1CCN(c2ccc(Nc3ncc(Cl)c(-c4cnn(CC5(CF)COC5)c4)n3)cn2)CC1 | < 10 nM | < 100 nM | < 100 nM | < 100 nM
2 | Cc1cnc(Nc2ccc3c(c2)CNC3=O)nc1-c1cnn(CC2(Cl)CC2)c1 | < 10 nM | < 10 nM | < 10 nM | < 10 nM
3 | Cc1cnc(Nc2ccc(N3CCOCC3)cc2)nc1-c1cnn(CC2(CF)CC2)c1 | < 10 nM | < 100 nM | < 10 nM | < 10 nM
4 | Cc1cnc(NCc2cccc(Cl)c2)nc1-c1cnn(CCC#N)c1 | < 100000 nM | < 100000 nM | ≥ 50000 nM | < 100000 nM
5 | Cc1cnc(Nc2cccc(C3(O)COC3)c2)nc1-c1cnn(CC2(CF)CC2)c1 | < 10 nM | < 1000 nM | < 100 nM | < 1000 nM
6 | Cc1csc(Nc2ncc(Cl)c(-c3cnn(CC4(CF)COC4)c3)n2)n1 | < 100 nM | < 1000 nM | < 1000 nM | < 1000 nM
7 | N#CC1(Cn2cc(-c3nc(Nc4cccc(C(N)=O)c4)ncc3Cl)cn2)CC1 | < 10 nM | < 100 nM | < 10 nM | < 100 nM
8 | CN(C)Cc1ccnc(Nc2ncc(Cl)c(-c3cnn(CC4(CF)CC4)c3)n2)c1 | < 100 nM | < 1000 nM | < 1000 nM | < 100000 nM
